Assay results as given in ChEMBL document CHEMBL1287767, “Experimental solubility profiling of marketed CNS drugs, exploring solubility limit of CNS discovery candidate” (Bioorg Med Chem Lett, 2010).

Chains of the proteins cited; added tags and fusions are not shown. Lines headed by an entry give the natural chain unless they say otherwise; changes in a name come on top.
UniProt Q12809: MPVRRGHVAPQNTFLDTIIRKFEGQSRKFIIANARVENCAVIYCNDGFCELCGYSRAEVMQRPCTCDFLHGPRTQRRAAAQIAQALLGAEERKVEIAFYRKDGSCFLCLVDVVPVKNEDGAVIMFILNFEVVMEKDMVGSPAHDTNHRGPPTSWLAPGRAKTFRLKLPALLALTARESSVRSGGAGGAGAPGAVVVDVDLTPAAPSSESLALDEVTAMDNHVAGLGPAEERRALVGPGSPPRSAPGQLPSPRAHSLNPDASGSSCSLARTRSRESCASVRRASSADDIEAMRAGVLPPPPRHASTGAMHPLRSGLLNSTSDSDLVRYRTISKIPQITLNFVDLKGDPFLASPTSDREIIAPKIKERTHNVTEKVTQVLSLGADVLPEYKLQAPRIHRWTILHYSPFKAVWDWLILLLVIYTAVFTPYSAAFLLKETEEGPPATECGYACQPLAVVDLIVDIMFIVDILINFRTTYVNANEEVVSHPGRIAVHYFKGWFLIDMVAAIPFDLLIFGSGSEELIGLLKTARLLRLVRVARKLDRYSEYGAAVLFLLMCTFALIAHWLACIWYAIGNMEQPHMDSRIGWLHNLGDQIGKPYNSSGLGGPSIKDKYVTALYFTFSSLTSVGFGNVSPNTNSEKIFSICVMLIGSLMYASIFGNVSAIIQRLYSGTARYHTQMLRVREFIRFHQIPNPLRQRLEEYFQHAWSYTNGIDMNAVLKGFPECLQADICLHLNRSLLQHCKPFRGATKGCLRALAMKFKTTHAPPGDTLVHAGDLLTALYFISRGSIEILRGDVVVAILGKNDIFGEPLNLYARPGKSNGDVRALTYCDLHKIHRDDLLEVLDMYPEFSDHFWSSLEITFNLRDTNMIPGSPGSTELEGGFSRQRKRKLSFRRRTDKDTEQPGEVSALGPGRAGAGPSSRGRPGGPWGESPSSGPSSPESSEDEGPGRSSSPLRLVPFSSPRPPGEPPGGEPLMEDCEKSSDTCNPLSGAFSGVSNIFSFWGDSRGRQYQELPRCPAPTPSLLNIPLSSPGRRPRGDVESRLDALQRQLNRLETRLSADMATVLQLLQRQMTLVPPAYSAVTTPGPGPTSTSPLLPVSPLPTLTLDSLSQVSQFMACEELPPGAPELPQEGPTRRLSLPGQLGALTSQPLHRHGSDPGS

Biological target: Voltage-gated inwardly rectifying potassium channel KCNH2 (Homo sapiens, UniProt Q12809)
Experiment: Inhibition of human ERG

Question: O=C1Cc2cc(CCN3CCN(c4nsc5ccccc45)CC3)c(Cl)cc2N1 [ZIPRASIDONE] was tested. Which IC50 did it give?
Answer: < 1000 nM
